## Antibody variant affinities, Ab-14 light chain, assay 1

The target is the same throughout: PDVDLGDISGINAS, from the HR2 region of SARS-CoV-2 spike.

The variants keep the heavy chain, the linker and the frameworks of Ab-14 (scFv order VH, a (GGGGS)3 linker, VL).
VH: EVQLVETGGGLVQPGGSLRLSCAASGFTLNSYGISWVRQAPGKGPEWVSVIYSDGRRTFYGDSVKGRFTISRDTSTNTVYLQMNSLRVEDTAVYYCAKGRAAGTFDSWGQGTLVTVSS
VL: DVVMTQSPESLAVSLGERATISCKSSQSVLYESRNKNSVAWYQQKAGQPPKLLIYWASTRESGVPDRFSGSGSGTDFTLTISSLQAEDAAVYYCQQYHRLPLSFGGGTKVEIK

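The parent was found by panning a naive human phage display library on the peptide. AAYL50 was designed without a model: most single CDR substitutions and a random sample of double and triple ones. In AlphaSeq, yeast of one mating type display the scFv and yeast of the other type display the target. Pairs that bind mate more often; barcode pairs of the diploids are counted by sequencing. A regression on co-assayed BCL2-family reference pairs converts the normalised counts of each replicate to an apparent Kd. Mating was done three times.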

The parent's light chain CDRs are KSSQSVLYESRNKNSVA, WASTRES, QQYHRLPLS; each variant's own CDRs replace them letter for letter. The read-out is the apparent dissociation constant on a log10 scale (nM): the lower, the stronger. Averages over replicates are reported, and they cover detected replicates only. Where no diploid with the target was found in that replicate, the entry reads "n.d.": below detection, most likely a poor binder, though not proof of it. As a blank, each scFv also met three strains without target: over library AAYL50, 18% of these pairings were detected, typically at 4.19 and seldom below 2.99. The control count says in how many pairings with the empty strains this scFv gave a signal, with their mean in brackets. For reference, the parent read 0.65 as the reference entry and 1.68 as a member of this library.

| # | CDR-L1 | CDR-L2 | CDR-L3 | log10 Kd (nM) by replicate | mean, log10 nM | control signals |
|---|---|---|---|---|---|---|
| 1 | KQSQSVLYESRHKNSVA | WASTRES | CQYHRLPLS | n.d. 3.31 5.04 | 4.18 | 3 of 9 (4.13) |
| 2 | KSSQSVLYESRNKPSVA | WASTRES | QQYQRQPLS | n.d. n.d. 2.95 | 2.95 | 1 of 9 (3.56) |
| 3 | KSSQSVLYESRNKNSVA | WLSTRES | EQYHCLPLS | 6.94 4.27 3.89 | 5.04 | 7 of 9 (4.38) |
| 4 | KSSQSVLYLSRNKQSVA | WASTREC | QQYHRLPLS | n.d. n.d. n.d. | n.d. | 1 of 9 (3.03) |
| 5 | KSSCRVLYESRNKNSVA | WASTRET | QQYHRLPLS | n.d. n.d. n.d. | n.d. | 1 of 9 (5.07) |
| 6 | YSSQSILYESRNKNSVA | WASTRDS | QQYHRLPLS | 1.48 2.03 1.71 | 1.74 | 0 of 9 |
| 7 | KSSQSVLYESRNKVSVA | WCSIRES | QQYHRLPLS | n.d. n.d. n.d. | n.d. | 1 of 9 (3.40) |
| 8 | YSSQSVLYESRNKNSVA | WASHRES | QQYHRLPLV | 1.97 1.59 1.49 | 1.68 | 1 of 9 (3.98) |
| 9 | KSSQSVLYESINKNSLA | WASTRWS | QQYHRLPLS | 3.09 n.d. n.d. | 3.09 | 0 of 9 |
| 10 | KHSQSVLYETRNKNSVA | WASTRES | QQYHRLPLS | 1.26 1.28 1.31 | 1.28 | 1 of 9 (3.70) |
| 11 | KSSQSVLYESRNVNSVA | WASTRAS | QQYHRLPLS | 1.05 1.15 1.20 | 1.13 | 2 of 9 (4.19) |
| 12 | KSSQSVLYESRNKNSVA | WASTRRS | QVYYRLPLS | n.d. n.d. n.d. | n.d. | 0 of 9 |
| 13 | KSSQSVLYESRNKNSVA | IASTRES | QQYHRLPGI | n.d. 3.87 4.90 | 4.38 | 1 of 9 (4.24) |
| 14 | KNSQSVLYESRNKNSVG | WASTTES | QQYHRLPLS | n.d. n.d. 3.59 | 3.59 | 2 of 9 (5.22) |
| 15 | KSSQSVLYESRNKYSVA | WASTGES | QQYDRLPLS | 3.63 3.85 n.d. | 3.74 | 5 of 9 (4.35) |
| 16 | KSSQSVLYESWNKNSHA | WASTRES | QQYHPLPLS | n.d. 3.54 5.26 | 4.40 | 5 of 9 (4.41) |
| 17 | KASQSVLYEQRHKNSVA | WASTRES | QQYHRLPLS | 1.19 1.26 1.35 | 1.27 | 5 of 9 (3.83) |
| 18 | KSSQSVLYESRPKNSVA | WASTREC | QQYHSLPLS | n.d. 2.67 n.d. | 2.67 | 0 of 9 |
| 19 | KSSQSVLYESRAKNSVR | WASTRES | QQYHSLPLS | n.d. n.d. n.d. | n.d. | 0 of 9 |
| 20 | KSSQSVLYESFNKNSIA | WASTRES | QQTHRLPLS | 0.46 0.71 0.59 | 0.58 | 0 of 9 |
| 21 | KSSQNVLYESRNKNSVA | WASTHES | QQYHRLPLY | n.d. n.d. n.d. | n.d. | 1 of 9 (2.91) |
| 22 | KSSQSVLYESRNFNSVA | WASTRES | QQYHRRPLS | 5.06 n.d. n.d. | 5.06 | 1 of 9 (3.67) |
| 23 | KSSQSVNYESRNKNSVA | WASTRES | QQYERLPLV | 1.09 1.13 1.18 | 1.13 | 3 of 9 (3.66) |
| 24 | KSSQSVLYENRNKNSVA | WAITRES | MQYHRLPLS | n.d. n.d. n.d. | n.d. | 0 of 9 |
| 25 | PESQSVLYESRNKNSVA | WASTRES | QQYHRLPCS | 5.58 n.d. 3.44 | 4.51 | 0 of 9 |
| 26 | ASSQTVLYESRNKNSVA | WASTRTS | QQYHRLPLS | 2.41 2.16 2.23 | 2.27 | 2 of 9 (4.63) |
| 27 | KSSQSVLYESRNKNSVA | AASFRES | QQYHYLPLS | 0.44 0.69 0.51 | 0.55 | 0 of 9 |
| 28 | KPSQSVLYESRNKNHVA | WASTYES | QQYHRLPLS | 5.99 4.85 n.d. | 5.42 | 6 of 9 (5.26) |
| 29 | KSSQIVLRESRNKCSVA | WASTRES | QQYHRLPLS | 4.53 3.61 4.12 | 4.09 | 6 of 9 (4.54) |
| 30 | KDSQSVLYESRNKWSVA | WASTRES | QPYHRLPLS | n.d. n.d. n.d. | n.d. | 1 of 9 (2.23) |
| 31 | KSSQSTPYESRNKNSVA | WASTRES | QQYHRLPLS | 0.46 0.70 0.60 | 0.59 | 1 of 9 (4.80) |
| 32 | KSSQSVLYHSRNKNSVA | WTSTRES | GQYHRLPLS | n.d. n.d. n.d. | n.d. | 0 of 9 |
| 33 | KSNQSVLYEVRNKNSVA | WASTRES | QQYHRLPWS | n.d. n.d. 3.49 | 3.49 | 1 of 9 (3.32) |
| 34 | KSSQSVLYESRNTNSVA | WASTRES | QIYHRCPLS | n.d. n.d. n.d. | n.d. | 0 of 9 |
| 35 | SSSQSHLYSSRNKNSVA | WASTRES | QQYHRLPLS | 1.49 1.73 1.89 | 1.70 | 2 of 9 (3.71) |
| 36 | KSSQSVLYESRFKNSVA | WASTTES | QQYHSLPLS | 3.31 3.98 4.74 | 4.01 | 2 of 9 (5.24) |
| 37 | KSSQSVWYESRNKNSVA | WASGRES | QQYHRLPQS | n.d. n.d. n.d. | n.d. | 2 of 9 (4.40) |
| 38 | KSSQSVLNESRNKYSVA | WAMTRES | QQYHRLPLS | 1.35 1.57 1.34 | 1.42 | 2 of 9 (5.14) |
| 39 | KSSQSVLYESRDKESVA | WASTRES | QQYHGLPLS | n.d. n.d. 4.51 | 4.51 | 4 of 9 (4.47) |
| 40 | KSSQSILYESRNKNSVA | WASTRES | QQYHRLPLS | 0.69 0.86 0.83 | 0.80 | 5 of 9 (5.07) |
| 41 | KYSQSVLYESRSKNSVA | WASTRES | QIYHRLPLS | 2.09 1.98 2.59 | 2.22 | 0 of 9 |
| 42 | VSSQSVSYESRNKNSVA | WASTRES | QQYHRLPLS | 1.83 1.83 1.95 | 1.87 | 2 of 9 (4.97) |
| 43 | KSSQSVDYESRNKPSVA | WASLRES | QQYHRLPLS | 1.46 1.24 1.23 | 1.31 | 2 of 9 (3.69) |
| 44 | KSSQSGLYESRNKNSVA | WASIRES | QQYHMLPLS | 0.17 0.56 0.27 | 0.33 | 1 of 9 (4.94) |
| 45 | KSSQSVSYWSRNKNSVA | WASTRES | QQYHRLRLS | n.d. n.d. n.d. | n.d. | 2 of 9 (3.44) |

The first 7 variants above that were never detected:

CDR-L1	CDR-L2	CDR-L3	log10 Kd (nM) by replicate	mean, log10 nM	control signals
KSSQSVLYLSRNKQSVA	WASTREC	QQYHRLPLS	n.d. n.d. n.d.	n.d.	1 of 9 (3.03)
KSSCRVLYESRNKNSVA	WASTRET	QQYHRLPLS	n.d. n.d. n.d.	n.d.	1 of 9 (5.07)
KSSQSVLYESRNKVSVA	WCSIRES	QQYHRLPLS	n.d. n.d. n.d.	n.d.	1 of 9 (3.40)
KSSQSVLYESRNKNSVA	WASTRRS	QVYYRLPLS	n.d. n.d. n.d.	n.d.	0 of 9
KSSQSVLYESRAKNSVR	WASTRES	QQYHSLPLS	n.d. n.d. n.d.	n.d.	0 of 9
KSSQNVLYESRNKNSVA	WASTHES	QQYHRLPLY	n.d. n.d. n.d.	n.d.	1 of 9 (2.91)
KSSQSVLYENRNKNSVA	WAITRES	MQYHRLPLS	n.d. n.d. n.d.	n.d.	0 of 9

The measurements come from Engelhart et al. 2022 (doi:10.1038/s41597-022-01779-4) through the FLAb antibody collection.